This note sets out measurements from ChEMBL document CHEMBL1148369, “Novel S-substituted aminoalkylamino ethanethiols as potential antidotes against sulfur mustard toxicity” (2004).

Usually LD50 stands for the dose at which mortality reaches 50%. A lower LD50 goes with a more toxic substance.

The subject of the assay is Mus musculus. Nature of the assay: LD50 following oral dosing.

`NCCCNCCSP(=O)(O)O` displayed an LD50 of 1050 mg/kg.
